Target: Histone deacetylase
Experiment: Inhibition of HDAC in human HeLa cell nuclear extracts
Type: cell-based

In the case of `CS(=O)(=O)CCNCc1ccc(-c2ccc3ncnc(Nc4ccc(OCc5cccc(F)c5)c(Cl)c4)c3c2)o1` [LAPATINIB], the IC50 is reported as > 100 µM.
